Chains of the proteins cited; added tags and fusions are not shown. Lines headed by an entry give the natural chain unless they say otherwise; changes in a name come on top.
UniProt P07384: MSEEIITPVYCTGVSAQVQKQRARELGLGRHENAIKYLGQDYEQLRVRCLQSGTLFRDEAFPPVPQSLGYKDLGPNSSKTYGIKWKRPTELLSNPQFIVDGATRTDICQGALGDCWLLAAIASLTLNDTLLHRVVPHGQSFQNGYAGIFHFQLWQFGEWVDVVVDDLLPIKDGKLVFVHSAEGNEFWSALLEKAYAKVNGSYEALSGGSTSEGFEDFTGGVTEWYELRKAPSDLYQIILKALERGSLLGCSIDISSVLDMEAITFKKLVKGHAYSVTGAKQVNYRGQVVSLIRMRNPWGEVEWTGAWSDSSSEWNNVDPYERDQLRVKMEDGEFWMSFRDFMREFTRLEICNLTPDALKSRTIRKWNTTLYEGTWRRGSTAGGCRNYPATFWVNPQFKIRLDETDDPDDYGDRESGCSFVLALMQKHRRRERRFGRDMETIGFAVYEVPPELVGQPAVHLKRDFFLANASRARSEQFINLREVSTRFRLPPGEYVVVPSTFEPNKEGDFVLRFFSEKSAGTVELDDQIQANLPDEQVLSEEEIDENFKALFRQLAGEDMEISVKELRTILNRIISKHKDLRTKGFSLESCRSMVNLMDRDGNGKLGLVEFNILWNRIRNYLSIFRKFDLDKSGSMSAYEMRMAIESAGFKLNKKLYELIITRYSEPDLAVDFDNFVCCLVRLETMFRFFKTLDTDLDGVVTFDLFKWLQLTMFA

According to patent US7022738B2, “α-ketoamide derivative and use thereof” (Senju Pharmaceutical Co., Ltd., priority 2002, dated 2006):

Target: μ-calpain (Homo sapiens, UniProt P07384)
Experiment: biochemical

- IC50: 21 nM
Compound: CCCCNC(=O)C(=O)[C@H](CC(C)C)NC(=O)[C@@H](NS(=O)(=O)c1ccc(F)cc1)C(C)C [Compound 1, (3S)-N-Butyl-3-((2S)-2-(((4-fluorophenyl)sulfonyl)amino)-3-methylbutanoylamino)-5-methyl-2-oxohexanamide]
